The Ki is the equilibrium dissociation constant of an inhibitor or competing ligand from its target. Lower therefore signals tighter binding.

The chains behind the UniProt entries cited, without tags or fusion partners.
UniProt P29476, whole entry: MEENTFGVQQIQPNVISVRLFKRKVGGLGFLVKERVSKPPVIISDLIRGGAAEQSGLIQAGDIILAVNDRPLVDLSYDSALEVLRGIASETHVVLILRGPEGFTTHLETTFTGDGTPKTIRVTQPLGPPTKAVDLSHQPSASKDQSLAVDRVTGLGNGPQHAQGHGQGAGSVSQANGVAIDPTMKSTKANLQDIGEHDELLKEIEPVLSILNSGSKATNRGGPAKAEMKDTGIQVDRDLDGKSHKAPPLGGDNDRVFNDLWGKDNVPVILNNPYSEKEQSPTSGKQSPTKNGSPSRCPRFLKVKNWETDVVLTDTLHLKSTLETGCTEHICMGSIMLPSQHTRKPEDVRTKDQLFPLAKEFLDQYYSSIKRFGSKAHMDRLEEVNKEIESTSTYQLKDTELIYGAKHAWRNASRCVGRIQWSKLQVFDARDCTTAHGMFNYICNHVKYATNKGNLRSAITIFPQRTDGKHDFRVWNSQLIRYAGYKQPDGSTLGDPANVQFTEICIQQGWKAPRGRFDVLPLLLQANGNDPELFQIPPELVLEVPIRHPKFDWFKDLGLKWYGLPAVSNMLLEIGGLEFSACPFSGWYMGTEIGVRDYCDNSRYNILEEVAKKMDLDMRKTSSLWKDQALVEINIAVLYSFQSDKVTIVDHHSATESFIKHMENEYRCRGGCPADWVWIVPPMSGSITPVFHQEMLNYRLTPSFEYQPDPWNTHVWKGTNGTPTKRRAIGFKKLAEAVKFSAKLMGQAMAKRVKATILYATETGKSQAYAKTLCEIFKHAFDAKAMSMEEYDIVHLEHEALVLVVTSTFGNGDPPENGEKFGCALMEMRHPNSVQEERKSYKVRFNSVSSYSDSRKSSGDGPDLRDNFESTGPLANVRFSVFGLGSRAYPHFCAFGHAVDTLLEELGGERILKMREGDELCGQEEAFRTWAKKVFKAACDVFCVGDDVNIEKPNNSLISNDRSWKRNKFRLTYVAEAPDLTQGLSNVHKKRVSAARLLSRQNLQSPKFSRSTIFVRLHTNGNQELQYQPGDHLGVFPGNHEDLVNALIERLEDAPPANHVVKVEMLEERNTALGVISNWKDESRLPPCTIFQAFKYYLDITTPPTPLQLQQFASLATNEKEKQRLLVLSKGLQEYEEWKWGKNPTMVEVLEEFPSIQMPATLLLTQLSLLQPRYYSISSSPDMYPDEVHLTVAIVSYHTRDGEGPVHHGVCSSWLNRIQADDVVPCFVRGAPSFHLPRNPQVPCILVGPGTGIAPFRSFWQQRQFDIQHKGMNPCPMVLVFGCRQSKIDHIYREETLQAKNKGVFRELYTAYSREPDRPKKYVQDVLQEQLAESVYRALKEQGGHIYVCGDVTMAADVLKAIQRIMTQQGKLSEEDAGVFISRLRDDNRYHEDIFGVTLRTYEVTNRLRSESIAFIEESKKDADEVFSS
UniProt P29475, whole entry: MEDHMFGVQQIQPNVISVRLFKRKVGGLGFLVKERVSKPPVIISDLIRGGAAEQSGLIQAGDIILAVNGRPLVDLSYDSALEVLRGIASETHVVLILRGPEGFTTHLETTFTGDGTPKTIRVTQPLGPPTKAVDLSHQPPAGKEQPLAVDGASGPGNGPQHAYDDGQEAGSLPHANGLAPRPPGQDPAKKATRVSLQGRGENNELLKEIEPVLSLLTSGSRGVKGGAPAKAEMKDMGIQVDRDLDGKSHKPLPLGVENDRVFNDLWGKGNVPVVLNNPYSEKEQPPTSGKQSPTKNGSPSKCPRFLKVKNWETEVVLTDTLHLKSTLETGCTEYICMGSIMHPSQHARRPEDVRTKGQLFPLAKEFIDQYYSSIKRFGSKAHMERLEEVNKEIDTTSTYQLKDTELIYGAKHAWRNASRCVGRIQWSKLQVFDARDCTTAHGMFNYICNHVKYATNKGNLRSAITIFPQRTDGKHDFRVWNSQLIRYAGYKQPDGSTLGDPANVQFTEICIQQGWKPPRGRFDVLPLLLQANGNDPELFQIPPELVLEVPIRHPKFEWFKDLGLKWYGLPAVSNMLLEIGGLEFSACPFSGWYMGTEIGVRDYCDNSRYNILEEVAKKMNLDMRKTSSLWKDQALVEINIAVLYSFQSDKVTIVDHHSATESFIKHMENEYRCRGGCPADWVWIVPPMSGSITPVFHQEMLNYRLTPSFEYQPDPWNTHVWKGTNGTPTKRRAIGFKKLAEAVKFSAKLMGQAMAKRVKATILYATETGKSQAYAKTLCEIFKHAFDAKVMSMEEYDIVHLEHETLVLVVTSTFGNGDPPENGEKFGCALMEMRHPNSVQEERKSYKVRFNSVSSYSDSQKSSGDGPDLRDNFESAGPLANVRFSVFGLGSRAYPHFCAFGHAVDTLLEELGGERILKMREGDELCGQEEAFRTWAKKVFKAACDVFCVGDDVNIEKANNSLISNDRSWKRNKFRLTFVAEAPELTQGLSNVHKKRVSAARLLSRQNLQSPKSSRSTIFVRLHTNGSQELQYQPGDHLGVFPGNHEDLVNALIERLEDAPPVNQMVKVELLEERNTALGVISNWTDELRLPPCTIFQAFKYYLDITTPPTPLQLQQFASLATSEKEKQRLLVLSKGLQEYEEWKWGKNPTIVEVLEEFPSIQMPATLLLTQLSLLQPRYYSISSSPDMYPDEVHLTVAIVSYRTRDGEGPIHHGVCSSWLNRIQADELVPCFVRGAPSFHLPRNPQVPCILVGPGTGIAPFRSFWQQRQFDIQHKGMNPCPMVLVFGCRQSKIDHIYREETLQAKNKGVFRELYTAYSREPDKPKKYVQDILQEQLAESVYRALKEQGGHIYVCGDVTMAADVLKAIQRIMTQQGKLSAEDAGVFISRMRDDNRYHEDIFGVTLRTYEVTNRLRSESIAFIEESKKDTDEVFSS

The target of experiment [1] is Nitric oxide synthase 1 (Rattus norvegicus, UniProt P29476).
Experiment [2] concerns the target Nitric oxide synthase 1 (Homo sapiens, UniProt P29475).

For `COc1ccncc1CCCNCc1ccc2ccc(N)nc2c1`, the inhibition constant (Ki) was determined as 0.05 µM in experiment [1] and 0.073 µM in experiment [2].

For the origin of these results see ChEMBL document CHEMBL4038342, “Hydrophilic, Potent, and Selective 7-Substituted 2-Aminoquinolines as Improved Human Neuronal Nitric Oxide Synthase Inhibitors” (J Med Chem, 2017).
